# Results published in PubChem BioAssay AID463190 (Sanford-Burnham Center for Chemical Genomics, 2010).
# The list shows a part of the results, in another mix than the full data. Active and inactive are the calls of the source.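 How the source made its calls: active means inhibition of at least 40%; inactive means the rest.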
# Experiment: growth inhibition of tim10-1 ts yeast – luminescence, uHTS, primary screen (AID 463190);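 further: mutant grown at 25 °C; 0% = DMSO wells with yeast and 100% = wells holding no yeast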
# Conditions: S. cerevisiae tim10-1 ts strain growth, BacTiter-Glo, 24 h; at 20 µM; active compounds read high
row,SMILES,inhibition
1,CCCOP(=S)(Nc1nc(N)cc(=O)[nH]1)OCCC,inactive: 16%
2,Cc1ccc(NCCc2c([N+](=O)[O-])cc([N+](=O)[O-])cc2[N+](=O)[O-])cc1,active: 63.5%
3,Cc1cccc(OCC(=O)OC2CN3CCC2CC3)c1 (centres undefined),inactive: -8.33%
4,O=[As](O)(c1cccc(O)c1)c1cccc(O)c1,inactive: -1.32%
5,CS(=O)(=O)c1ccc(Cl)c(NC(=O)COC(=O)C(O)(c2ccccc2)c2ccccc2)c1,inactive: 18.3%
6,O=[As](O)(O)c1cccnc1,inactive: -12.8%
7,COc1cc(C(=O)NCC2(N3CCOCC3)CCCCC2)cc(Cl)c1OC(C)C,inactive: 23.8%
8,O=C(OC1CN2CCC1CC2)c1ccc(Cl)cc1 (centres undefined),inactive: -26.7%
9,CN(C(=O)Cc1ccc(Cl)c(Cl)c1)[C@H]1CC[C@@]2(CCCO2)C[C@@H]1N1CCCC1,inactive: 14.1%
10,O=[N+]([O-])c1ccc2c(c1)nnn2O,inactive: 2.24%
11,CN(C)C(=O)c1cc([N+](=O)[O-])cc2c1-c1c(cc([N+](=O)[O-])cc1[N+](=O)[O-])C2=O,active: 81%
12,CCOP1(=S)c2c(C)nn(CCC#N)c2N=C(c2ccc(F)cc2)N1C (centres undefined),inactive: 8.51%
13,CN(C(=O)Cc1ccccc1)[C@@H]1CC[C@]2(CCCO2)C[C@H]1N1CCCC1,inactive: 7.47%
14,N#CCCN(C(=O)COC(=O)C(O)(c1ccccc1)c1ccccc1)c1ccc(F)cc1,inactive: 6.99%
15,NC(=O)Nc1ccc([As](=O)(O)O)cc1,inactive: -4.42%
16,Nc1ccccc1[As](=O)(O)c1ccccc1,inactive: -11%
17,O=C(O)COc1ccc([As](=O)(O)O)cc1[N+](=O)[O-],inactive: 17.3%
18,CS(=O)(=O)c1cc([N+](=O)[O-])c2no[n+]([O-])c2c1,inactive: 1.67%
19,O=P(Nc1nccs1)(Oc1ccccc1)Oc1ccccc1,inactive: 16.8%
20,O=P(Nc1nccs1)(c1ccccc1)c1nc2ccccc2s1 (centres undefined),inactive: -3.34%
21,CCOP1(=S)c2c(C)nn(CCC#N)c2N=C(c2ccccc2F)N1C (centres undefined),inactive: 26.6%
22,O=[As](O)(c1cccs1)c1cccs1,inactive: 30.4%

row,SMILES,inhibition
1,Cc1ccc(OCC(=O)OC2CN3CCC2CC3)cc1 (centres undefined),inactive: 5.39%
2,O=P1(Nc2ccc(Br)cn2)COc2ccccc2OC1,inactive: 3.67%
3,NS(=O)(=O)c1cccc(NC(=O)COC(=O)C(O)(c2ccccc2)c2ccccc2)c1,inactive: -4.76%
4,Nc1cccc([As](=O)(O)c2ccccc2)c1,inactive: -12.6%
5,O=P1(Nc2ncccn2)COc2ccccc2OC1,inactive: 13%
6,O=C(/C=C/c1ccccc1)OC1CN2CCC1CC2 (centres undefined),inactive: 5.07%
7,CN(C)C1(CNC(=O)c2ccc(S(C)(=O)=O)cc2)CCCCC1,inactive: 9.93%
8,CC1CCC(C(C)C)C(OP(=O)(Nc2ccccn2)c2ccccc2)C1 (centres undefined),inactive: 24.7%
9,Cc1ccc(C(=O)OC2CN3CCC2CC3)cc1 (centres undefined),inactive: -3.98%
10,Cc1nn(-c2ccccc2)c2c1P(=O)(N1CCOCC1)N(C)C(c1ccccc1)=N2 (centres undefined),inactive: -0.436%
11,CC1(CBr)Cn2c(nc3ccccc3c2=O)S1 (centres undefined),inactive: -0.379%
12,O=[As](O)(c1ccccc1Br)c1ccccc1Br,inactive: 6.24%
13,CC(C)/C=N\N=C(\N)N[N+](=O)[O-],inactive: -2.59%
14,CN(C(=O)Cc1ccc(Cl)c(Cl)c1)[C@@H]1CCCC[C@H]1N1CCCC1,inactive: -6.44%
15,COc1ccccc1CNC(=O)COC(=O)C(O)(c1ccccc1)c1ccccc1,inactive: 11.3%
16,CC(C)(C)C(=O)NC(Sc1ncccn1)C(Cl)(Cl)Cl (centres undefined),inactive: 18.3%
17,Clc1n[nH]nc1-c1nn[nH][15n]1,inactive: 12.4%
18,CCOP(=O)(Nc1ccc(C)cn1)OCC,inactive: 1.38%
19,CN(CCCl)Cc1cc(Cl)c(NC2=NCCN2)c(Cl)c1,inactive: -3.2%
20,CCOP(=O)(NC(=NC(C)c1ccccc1)NC(C)c1ccccc1)OCC (centres undefined),inactive: 10.7%
21,O=P1(Nc2ccccn2)COc2ccccc2OC1,inactive: -2.97%
22,CCC1=CC2Cc3nc4ccc(Cl)cc4c(N)c3C(C1)C2 (centres undefined),inactive: -24.6%
